Literature values as cited in publication PMC11215778 (Journal of Medicinal Chemistry, 2024).

Key:
Conditions in all cases: cited from earlier work
5-HT1B = biological target: 5-HT1B
ADRA1B = biological target: ADRA1B
ADRA1D = biological target: ADRA1D

COC(=O)[C@@H]1[C@H]2C[C@H]3c4[nH]c5ccccc5c4CCN3C[C@@H]2CC[C@@H]1O [Compound 1, Yohimbine, reference compound]
6.8: 5-HT1B pKi (5-HT1B) | ADRA1B pKi (ADRA1B) | ADRA1D pKi (ADRA1D)
